A selection: hits, their analogues and other compounds. The true share with any hit is near 1.3%.
Yeast UUG start: yeast start codon fidelity modulation. S. cerevisiae UUG-firefly luciferase reporter, luminescence/redox ratio. activity score, % at 18.7 µM. 0.13% of 350,000 active;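 active means replicate mean at a twofold rise or more, about +100% in these data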;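 further: firefly luciferase made from a UUG start codon reports start codon fidelity; reporter light over untreated wells divided by growth signal over untreated wells; some hits fall short of that in this replicate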
SR-BI HDL uptake: blocks mouse SR-BI lipid uptake from DiI-HDL. inhibition, % at 12.5 µM. 320,000 compounds, 0.96% hits. ldlA[mSR-BI] CHO cells, DiI-HDL uptake fluorescence, 3 h. AID 488896. Q61009;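 active means mean replicate inhibition of at least 70% and a set share of replicates each scoring 70 or more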;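 further: 0% = median of neutral control wells and 100% = median of positive control wells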
SR-BI uptake up: enhances SR-BI lipid uptake from DiI-HDL; CHO ldlA[mSR-BI] cells, DiI-HDL uptake fluorescence, 3 h; 100 = double the neutral-control signal; activation, % at 12.5 µM; 320,000 compounds, 0.096% hits;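 active means mean replicate activation of at least 60% and every replicate at or above 60%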;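 further: 0% = median plate neutral-control signal and 100% = twice that signal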
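Assay system: LDL receptor-deficient CHO ldlA cells overexpressing murine SR-BI / Medium: BSA-supplemented, HEPES-buffered Ham's F12, pH 7.4 / Probe or stimulus: DiI-labelled HDL at 10 µg/mL final / Timing: compound with DiI-HDL co-incubation, 3 h at 37 °C / Technique: bottom-read cell fluorescence after medium removal, ex 550/em 595 nm / Measure: HDL uptake via cellular fluorescence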
GSIS activator: primary screen for activators of insulin secretion dependent on glucose, INS-1E cells, GLuc reporter luminescence. INS-1E GLuc reporter insulin secretion, 2-3 h. activation, % at 16.6 µM. AID 743287. 370,000 compounds, 0.61% hits;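 active means lowest replicate activation of at least 40%, so every replicate reaches that level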;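 further: 0% = median of neutral control wells and 100% = median of IBMX positive control wells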
The depositor's hits bear a star; i = inactive; · = no result.

Field names: A = Yeast UUG start; B = SR-BI HDL uptake; C = SR-BI uptake up; D = GSIS activator
COc1ccc(/C=C/C(O)=C(\C#N)c2nnc(N3CCOCC3)n2-c2ccccc2)cc1OC
  A = ·; B = 75*; C = -75; D = 31

Cc1cc(Br)ccc1OCCCCNC(C)(C)C
  A = -12; B = -14; C = 14; D = ·

CC(C)COc1ccc(Br)cc1CNC(C)(C)C
  A = ·; B = -9; C = 9; D = 51*

OCCCCc1nccc2c1[nH]c1ccccc12
  A = ·; B = i; C = 538*; D = 10

Cc1[nH]c2ccccc2c1CCCO
  A = ·; B = ·; C = ·; D = -8

COc1ccc2c3c([nH]c2c1)[C@@H](CO)N(S(C)(=O)=O)CC31CCN(Cc2ccccc2)CC1
  A = ·; B = ·; C = ·; D = -1

COc1ccc(N2CC(NS(=O)(=O)c3cccs3)CC2=O)cc1OC (stereo unspecified)
  A = 0; B = -32; C = 32; D = 41*

C[C@H](O)C#Cc1cnc2c(c1)C(=O)N([C@H](C)CO)C[C@@H](C)[C@@H](CN(C)C(=O)c1ccncc1)O2
  A = -19; B = ·; C = ·; D = 25

CC1(C)Cc2c(cnn2-c2ccccc2)C(NC(=O)CCCN2CCCCC2=O)C1 (stereo unspecified)
  A = -3; B = -12; C = 12; D = 5

CC1(C)Cc2c(cnn2-c2ccccc2)C(NC(=O)CCN2CCCC2=O)C1 (stereo unspecified)
  A = -22; B = -5; C = 5; D = 41*

O=[N+]([O-])c1ccc(S(=O)Cc2ccccc2)c([N+](=O)[O-])c1 (stereo unspecified)
  A = ·; B = 13; C = -13; D = 117*

Nc1nc(NC2CCCCC2)nc(NCCO)c1[N+](=O)[O-]
  A = -7; B = 12; C = -12; D = 4

Cc1ccc(Nc2nc(N)c([N+](=O)[O-])c(NCCO)n2)cc1
  A = 5; B = ·; C = ·; D = 7

CCN(CC)c1nc(N)c([N+](=O)[O-])c(NCCO)n1
  A = ·; B = -16; C = 16; D = 85*

C=CCNc1nc(N)c([N+](=O)[O-])c(NCCO)n1
  A = ·; B = 8; C = -8; D = 82*

COc1ccc2c3c([nH]c2c1)[C@@H](CO)N(C(=O)CN1CCOCC1)CC31CCN(C(=O)NC(C)C)CC1
  A = ·; B = ·; C = ·; D = 26

COc1ccc2c3c([nH]c2c1)[C@H](CO)N(C)CC31CN(C(=O)c2ccccc2F)C1
  A = ·; B = ·; C = ·; D = 11

COc1ccc(NC(=O)N(C)C[C@H]2Oc3c(NS(=O)(=O)c4ccc(Cl)cc4)cccc3C(=O)N([C@H](C)CO)C[C@@H]2C)cc1
  A = -3; B = ·; C = ·; D = 3

C[C@@H]1CCCCO[C@H](CN(C)Cc2ccc(C(=O)Nc3ccccc3N)cc2)[C@@H](C)CN([C@@H](C)CO)C(=O)c2cc(N(C)C)ccc2O1
  A = ·; B = ·; C = ·; D = -4

CC(C)N1C(=O)N(c2cccc(Cl)c2)C(C)(O)CC1(C)C (stereo unspecified)
  A = -23; B = -12; C = 12; D = 64*

Compound profiles, from the list above. Screens in order: Yeast UUG start, SR-BI HDL uptake, SR-BI uptake up, GSIS activator
C[C@@H]1CCCCO[C@H](CN(C)Cc2ccc(C(=O)Nc3ccccc3N)cc2)[C@@H](C)CN([C@@H](C)CO)C(=O)c2cc(N(C)C)ccc2O1 as listed: ·, ·, ·, -4
O=[N+]([O-])c1ccc(S(=O)Cc2ccccc2)c([N+](=O)[O-])c1 (stereo unspecified) as listed: ·, 13, -13, 117*
Cc1[nH]c2ccccc2c1CCCO as listed: ·, ·, ·, -8

Additional structures:
Field names: A = Yeast UUG start; B = SR-BI HDL uptake; C = SR-BI uptake up; D = GSIS activator
CC(C)N1C(=O)N(c2ccc(Cl)cc2)C(C)(O)CC1(C)C (stereo unspecified)
  A = 1; B = 1; C = -1; D = 3

Clc1ccc(-c2cc(CN3CCOCC3)no2)cc1
  A = -10; B = -23; C = 23; D = 147*

CCCCCc1cc(=O)oc2c(C(CCN(CC)CC)c3cc(OC)c(OC)c(OC)c3)c(OC)cc(OC)c12 (stereo unspecified)
  A = 14; B = -19; C = 19; D = 63*

COc1ccc(NC(=O)N[C@@H]2CC[C@@H](CCNS(=O)(=O)c3ccccc3F)O[C@@H]2CO)cc1
  A = 4; B = ·; C = ·; D = 3

C[C@@H]1CCCCO[C@@H](CN(C)Cc2ccc(C(=O)Nc3ccccc3N)cc2)[C@@H](C)CN([C@H](C)CO)C(=O)c2cc(NC(=O)C3CCCCC3)ccc2O1
  A = ·; B = ·; C = ·; D = 2

O=C(Nc1ccc(-c2csc(Nc3cccc(C(F)(F)F)c3)n2)cc1)c1ccccc1
  A = -19; B = 97*; C = -97; D = 9

Cc1nc(-c2ccc(NC(=O)c3ccccc3)cc2)cs1
  A = -39; B = 23; C = -23; D = 6

CC(=O)Nc1ccc(Nc2nc(-c3c(C)nc4ccccn34)cs2)cc1
  A = -23; B = ·; C = ·; D = 49*

Cc1nc2ncccn2c1-c1csc(Nc2ccccc2)n1
  A = ·; B = -1; C = 1; D = ·

O=C(Nc1cccc(-c2csc(Nc3cccc(C(F)(F)F)c3)n2)c1)c1ccccc1
  A = -18; B = 78*; C = -78; D = ·

O=C(Nc1ccc(-c2csc(Nc3ccc(Cl)cc3)n2)cc1)c1ccccc1
  A = -12; B = 93*; C = -93; D = 7

O=[N+]([O-])c1cccc(-c2csc(Nc3ccccc3)n2)c1
  A = -5; B = 87*; C = -87; D = 3

O=C(Nc1cccc(-c2csc(Nc3ccccc3)n2)c1)c1ccccc1
  A = -14; B = 77*; C = -77; D = -8

O=C(Nc1ccc(-c2csc(Nc3cccc(C(F)(F)F)c3)n2)cc1)c1cc([N+](=O)[O-])cc(C(F)(F)F)c1
  A = 10; B = 92*; C = -92; D = ·

OC(c1ccccc1)(c1nc(-c2cccc(C(F)(F)F)c2)cs1)C(F)(F)F (stereo unspecified)
  A = -10; B = ·; C = ·; D = 106*

O=C(Nc1cccc(-c2cnc3ccccc3n2)c1)c1ccccc1
  A = -16; B = 14; C = -14; D = 0

COc1ccccc1Nc1nc(-c2cccc([N+](=O)[O-])c2)cs1
  A = ·; B = 59; C = -59; D = -10

C[C@@H]1CN([C@@H](C)CO)S(=O)(=O)c2ccc(-c3ccccc3)cc2O[C@H]1CN(C)Cc1cccc(F)c1
  A = 31; B = ·; C = ·; D = -2

CC(=O)c1cccc(Nc2nc(-c3cccnc3)cs2)c1
  A = -14; B = 23; C = -23; D = 7

CC(=O)c1cccc(Nc2nc(-c3ccccc3)cs2)c1
  A = -23; B = 75*; C = -75; D = -16

C[C@@H]1CN([C@@H](C)CO)C(=O)c2cc(NC(=O)C3CCCCC3)ccc2O[C@@H](C)CCCCO[C@H]1CN(C)S(C)(=O)=O
  A = ·; B = ·; C = ·; D = 1

CCOC(=O)c1ccc(NC(=S)Nc2cccc(N)n2)cc1
  A = -20; B = 35; C = -35; D = -10

CCOC(=O)c1ccc(NC(=S)Nc2cccc(C)n2)cc1
  A = -9; B = -2; C = 2; D = 48*

COc1ccc(-c2nc(NC(=O)C3CC(=O)N(c4ccc5c(c4)OCCO5)C3)sc2C)cc1 (stereo unspecified)
  A = ·; B = 74*; C = -74; D = -14

COc1ccc2nc(NC(=O)C3CC(=O)N(c4ccc5c(c4)OCCO5)C3)sc2c1 (stereo unspecified)
  A = ·; B = 24; C = -24; D = -22

COc1cccc(CN(C)C[C@@H]2OCc3cn(nn3)CCCC(=O)N([C@@H](C)CO)C[C@@H]2C)c1
  A = ·; B = ·; C = ·; D = 4

COc1ccc(NC(=O)CNc2cccc(C#N)c2)cc1Cl
  A = -4; B = 27; C = -27; D = ·

COc1ccc(NCC(=O)Nc2ccc(C#N)cc2)cc1Cl
  A = -3; B = 95*; C = -95; D = ·

COc1ccc(CNC(=O)CCS(=O)(=O)Cc2ccc(C)cc2)c(OC)c1
  A = ·; B = 8; C = -8; D = 26

COc1ccccc1CNC(=O)CCS(=O)(=O)Cc1ccc(C)cc1
  A = -8; B = 3; C = -3; D = 88*

CCCC#Cc1cnc2c(c1)C(=O)N([C@@H](C)CO)C[C@@H](C)[C@H](CN(C)C(=O)Nc1ccccc1OC)O2
  A = 16; B = ·; C = ·; D = -6

CN1CC(COCc2ccccc2)Oc2ccccc2S1(=O)=O (stereo unspecified)
  A = -26; B = 1; C = -1; D = 16

O=S1(=O)c2ccccc2OC(COCc2ccccc2)CN1C1CC1 (stereo unspecified)
  A = 1; B = -15; C = 15; D = 109*

Assay outcomes (PubChem BioAssay)
